# Results taken from BindingDB's records for doi:10.1111/j.1476-5381.1995.tb14977.x (Syntex Discovery Research, 1995).
# By UniProt entry, the sequences of proteins in these tests, tags left out. Where a name states a change or a piece, a line headed by the entry shows the natural chain unless it says otherwise.
# UniProt P30994, whole entry: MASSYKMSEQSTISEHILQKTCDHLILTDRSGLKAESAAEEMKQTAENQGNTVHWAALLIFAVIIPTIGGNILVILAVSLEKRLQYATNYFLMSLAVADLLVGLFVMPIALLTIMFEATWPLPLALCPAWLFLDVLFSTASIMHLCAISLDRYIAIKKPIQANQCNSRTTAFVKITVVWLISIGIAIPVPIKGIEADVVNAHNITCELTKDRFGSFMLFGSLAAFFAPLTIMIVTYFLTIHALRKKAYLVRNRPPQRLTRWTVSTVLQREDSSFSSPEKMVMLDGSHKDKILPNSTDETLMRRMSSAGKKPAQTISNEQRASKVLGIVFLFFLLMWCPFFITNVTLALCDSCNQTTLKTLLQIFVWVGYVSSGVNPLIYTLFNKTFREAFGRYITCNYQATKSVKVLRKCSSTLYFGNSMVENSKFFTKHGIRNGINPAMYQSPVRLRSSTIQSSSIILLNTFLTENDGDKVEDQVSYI
# UniProt P14842, whole entry: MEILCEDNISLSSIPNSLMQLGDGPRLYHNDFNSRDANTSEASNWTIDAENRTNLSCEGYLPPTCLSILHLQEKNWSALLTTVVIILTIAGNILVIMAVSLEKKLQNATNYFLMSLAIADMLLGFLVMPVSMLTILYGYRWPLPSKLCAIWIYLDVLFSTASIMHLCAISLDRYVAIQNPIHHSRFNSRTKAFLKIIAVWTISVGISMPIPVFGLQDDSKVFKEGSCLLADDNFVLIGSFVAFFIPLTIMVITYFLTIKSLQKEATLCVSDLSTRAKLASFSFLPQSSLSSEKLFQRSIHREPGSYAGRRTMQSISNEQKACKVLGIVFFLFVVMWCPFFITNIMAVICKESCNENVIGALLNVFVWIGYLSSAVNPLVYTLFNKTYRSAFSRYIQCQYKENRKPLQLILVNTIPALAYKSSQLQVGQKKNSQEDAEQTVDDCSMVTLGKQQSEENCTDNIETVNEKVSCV
# UniProt P41595, whole entry: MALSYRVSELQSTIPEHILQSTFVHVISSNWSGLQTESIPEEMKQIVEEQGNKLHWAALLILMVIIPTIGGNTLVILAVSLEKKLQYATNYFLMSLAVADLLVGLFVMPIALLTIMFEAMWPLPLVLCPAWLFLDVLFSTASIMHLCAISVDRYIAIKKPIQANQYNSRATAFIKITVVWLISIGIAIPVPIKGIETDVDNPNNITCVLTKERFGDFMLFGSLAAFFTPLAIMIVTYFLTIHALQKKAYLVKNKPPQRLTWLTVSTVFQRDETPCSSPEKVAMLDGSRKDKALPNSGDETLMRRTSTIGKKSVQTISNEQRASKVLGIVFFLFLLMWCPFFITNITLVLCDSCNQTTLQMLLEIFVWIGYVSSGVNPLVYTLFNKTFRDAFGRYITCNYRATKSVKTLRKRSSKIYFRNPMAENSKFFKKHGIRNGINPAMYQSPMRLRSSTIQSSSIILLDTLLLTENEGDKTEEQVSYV
# UniProt P28223, whole entry: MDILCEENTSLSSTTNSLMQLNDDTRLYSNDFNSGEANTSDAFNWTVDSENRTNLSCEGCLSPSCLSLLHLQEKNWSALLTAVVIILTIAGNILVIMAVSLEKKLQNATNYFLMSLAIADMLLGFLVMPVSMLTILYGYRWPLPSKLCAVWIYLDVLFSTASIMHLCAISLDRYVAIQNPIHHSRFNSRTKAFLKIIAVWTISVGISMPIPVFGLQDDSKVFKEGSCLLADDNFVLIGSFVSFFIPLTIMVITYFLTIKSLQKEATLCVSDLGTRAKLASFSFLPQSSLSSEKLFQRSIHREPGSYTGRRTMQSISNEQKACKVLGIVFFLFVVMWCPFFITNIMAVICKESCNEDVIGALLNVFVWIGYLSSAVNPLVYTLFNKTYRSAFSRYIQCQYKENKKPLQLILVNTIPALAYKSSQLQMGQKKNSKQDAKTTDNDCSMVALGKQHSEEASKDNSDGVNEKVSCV
# UniProt P28335: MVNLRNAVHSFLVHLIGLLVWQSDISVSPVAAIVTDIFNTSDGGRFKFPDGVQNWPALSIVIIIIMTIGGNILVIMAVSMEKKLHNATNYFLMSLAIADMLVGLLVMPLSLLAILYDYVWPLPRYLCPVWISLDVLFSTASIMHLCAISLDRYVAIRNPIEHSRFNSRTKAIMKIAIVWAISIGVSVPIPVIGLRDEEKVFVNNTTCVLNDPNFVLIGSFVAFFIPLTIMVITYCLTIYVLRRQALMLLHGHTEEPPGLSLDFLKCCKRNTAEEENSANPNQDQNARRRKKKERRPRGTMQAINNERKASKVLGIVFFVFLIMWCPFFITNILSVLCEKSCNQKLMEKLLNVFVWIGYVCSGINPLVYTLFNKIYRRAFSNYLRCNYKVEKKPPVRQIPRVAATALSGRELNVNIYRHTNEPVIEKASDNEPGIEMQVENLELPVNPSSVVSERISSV
# How the values were obtained:
# [1] = target: 5-hydroxytryptamine receptor 2B (Rattus norvegicus, UniProt P30994)
# [2] = target: 5-hydroxytryptamine receptor 2A (Rattus norvegicus, UniProt P14842)
# [3] = target: T1, 5-hydroxytryptamine receptor 2C (Rattus norvegicus, UniProt P08909)
# T1 sequence (P08909 whole entry): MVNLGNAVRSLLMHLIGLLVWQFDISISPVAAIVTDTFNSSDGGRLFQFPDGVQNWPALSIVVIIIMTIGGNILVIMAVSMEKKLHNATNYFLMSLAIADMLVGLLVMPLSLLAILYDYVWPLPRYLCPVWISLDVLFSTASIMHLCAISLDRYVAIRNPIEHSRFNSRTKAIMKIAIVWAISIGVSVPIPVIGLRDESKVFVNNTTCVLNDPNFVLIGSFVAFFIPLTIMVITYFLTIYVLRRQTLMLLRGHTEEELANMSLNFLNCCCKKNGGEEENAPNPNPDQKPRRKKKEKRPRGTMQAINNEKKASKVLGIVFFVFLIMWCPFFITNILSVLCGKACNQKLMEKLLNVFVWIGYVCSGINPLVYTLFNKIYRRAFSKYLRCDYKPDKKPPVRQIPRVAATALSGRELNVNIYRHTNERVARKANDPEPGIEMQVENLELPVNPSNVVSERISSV
# [4] = target: 5-hydroxytryptamine receptor 2B (Homo sapiens, UniProt P41595)
# [5] = target: 5-hydroxytryptamine receptor 2A (Homo sapiens, UniProt P28223)
# [6] = target: 5-hydroxytryptamine receptor 2C (Homo sapiens, UniProt P28335)
Structure (SMILES),Ki [1],Ki [2],Ki [3],Ki [4],Ki [5],Ki [6]
"O=C(CCCN1CCC2(CC1)C(=O)NCN2c1ccccc1)c1ccc(F)cc1 [8-[4-(4-fluorophenyl)-4-oxidanylidene-butyl]-1-phenyl-1,3,8-triazaspiro[4.5]decan-4-one]",3160 nM,0.31 nM,794 nM,–,–,–
Clc1cccc(N2CCNCC2)c1 [mCPP],–,–,–,31.6 nM,398 nM and 50.1 nM,251 nM
COC(=O)[C@@H]1[C@H]2C[C@H]3c4[nH]c5ccccc5c4CCN3C[C@@H]2CC[C@@H]1O [yohimbic acid methyl ester],–,–,–,–,–,> 10000 nM

# Where “and” joins values, the source holds several entries; their conditions need not be identical. Equal entries are not always repeated.
